The values below come from ChEMBL document CHEMBL4428134, “Discovery of AZD2716: A Novel Secreted Phospholipase A2 (sPLA2) Inhibitor for the Treatment of Coronary Artery Disease” (ACS Med Chem Lett, 2016).

SMILES strings stand for the structures.

Assay [1] has as its target T1, Phospholipase A2, membrane associated (Homo sapiens, UniProt P14555).
T1 sequence (P14555 whole entry): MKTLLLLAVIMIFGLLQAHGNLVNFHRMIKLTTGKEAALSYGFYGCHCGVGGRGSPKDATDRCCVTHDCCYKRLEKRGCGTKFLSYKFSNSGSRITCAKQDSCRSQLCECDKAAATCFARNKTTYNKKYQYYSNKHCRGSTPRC
Briefly: Inhibition of recombinant sPLA2-2A (unknown origin) using 1-palmitoyl-2-oleoyl-sn-glycero-3-phosphocholine as substrate preincubated for 10 mins followed by substrate addition measured after 60 mins by colorimetric method.

The target in assay [2] is T2, Group 10 secretory phospholipase A2 (Homo sapiens, UniProt O15496).
T2 sequence (O15496 whole entry): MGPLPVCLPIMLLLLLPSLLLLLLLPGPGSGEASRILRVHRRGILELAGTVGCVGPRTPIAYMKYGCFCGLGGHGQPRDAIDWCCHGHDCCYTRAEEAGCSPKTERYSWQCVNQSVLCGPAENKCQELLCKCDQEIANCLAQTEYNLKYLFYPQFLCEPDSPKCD
Briefly: Inhibition of recombinant sPLA2-10 (unknown origin) using 1-palmitoyl-2-oleoyl-sn-glycero-3-phosphocholine as substrate preincubated for 10 mins followed by substrate addition measured after 60 mins by colorimetric method.

For orientation: IC50 means the midpoint of a concentration-inhibition curve. For `CCc1c(C(=O)C(N)=O)c2c(OCC(=O)O)cccc2n1Cc1ccccc1` [VARESPLADIB], the IC50 in assay [1] came to 28 nM; in assay [2], 41 nM.
